Test results from publication PMC12117711, “The contribution of cyclic imide stereoisomers on cereblon-dependent activity†” (Chemical Science, 2025).
Where “and” joins values, the source holds several entries; their conditions need not be identical. Identical values can stand only once.

Sequences of proteins named here, by UniProt entry; tags and fusion partners are left off. A change or cut given only in a name is not applied to a line headed by its entry. Residues count along the entry.
UniProt Q96SW2, whole entry: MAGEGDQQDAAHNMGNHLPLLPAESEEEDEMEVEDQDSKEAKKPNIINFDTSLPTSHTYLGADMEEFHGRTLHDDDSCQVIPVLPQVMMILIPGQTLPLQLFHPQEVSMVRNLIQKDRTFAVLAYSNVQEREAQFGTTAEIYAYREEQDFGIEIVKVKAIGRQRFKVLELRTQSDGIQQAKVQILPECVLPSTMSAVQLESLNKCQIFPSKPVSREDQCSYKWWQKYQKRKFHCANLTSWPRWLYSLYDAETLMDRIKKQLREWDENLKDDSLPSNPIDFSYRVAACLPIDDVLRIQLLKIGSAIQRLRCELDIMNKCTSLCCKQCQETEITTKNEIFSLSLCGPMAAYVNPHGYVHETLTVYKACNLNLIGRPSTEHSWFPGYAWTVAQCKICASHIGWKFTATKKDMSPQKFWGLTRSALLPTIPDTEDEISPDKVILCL
UniProt Q96SW2, 318-426 limits assumed: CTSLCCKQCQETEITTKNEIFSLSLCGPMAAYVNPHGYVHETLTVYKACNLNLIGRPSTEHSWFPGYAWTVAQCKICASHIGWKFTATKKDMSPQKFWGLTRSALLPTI
UniProt Q16531, whole entry partner: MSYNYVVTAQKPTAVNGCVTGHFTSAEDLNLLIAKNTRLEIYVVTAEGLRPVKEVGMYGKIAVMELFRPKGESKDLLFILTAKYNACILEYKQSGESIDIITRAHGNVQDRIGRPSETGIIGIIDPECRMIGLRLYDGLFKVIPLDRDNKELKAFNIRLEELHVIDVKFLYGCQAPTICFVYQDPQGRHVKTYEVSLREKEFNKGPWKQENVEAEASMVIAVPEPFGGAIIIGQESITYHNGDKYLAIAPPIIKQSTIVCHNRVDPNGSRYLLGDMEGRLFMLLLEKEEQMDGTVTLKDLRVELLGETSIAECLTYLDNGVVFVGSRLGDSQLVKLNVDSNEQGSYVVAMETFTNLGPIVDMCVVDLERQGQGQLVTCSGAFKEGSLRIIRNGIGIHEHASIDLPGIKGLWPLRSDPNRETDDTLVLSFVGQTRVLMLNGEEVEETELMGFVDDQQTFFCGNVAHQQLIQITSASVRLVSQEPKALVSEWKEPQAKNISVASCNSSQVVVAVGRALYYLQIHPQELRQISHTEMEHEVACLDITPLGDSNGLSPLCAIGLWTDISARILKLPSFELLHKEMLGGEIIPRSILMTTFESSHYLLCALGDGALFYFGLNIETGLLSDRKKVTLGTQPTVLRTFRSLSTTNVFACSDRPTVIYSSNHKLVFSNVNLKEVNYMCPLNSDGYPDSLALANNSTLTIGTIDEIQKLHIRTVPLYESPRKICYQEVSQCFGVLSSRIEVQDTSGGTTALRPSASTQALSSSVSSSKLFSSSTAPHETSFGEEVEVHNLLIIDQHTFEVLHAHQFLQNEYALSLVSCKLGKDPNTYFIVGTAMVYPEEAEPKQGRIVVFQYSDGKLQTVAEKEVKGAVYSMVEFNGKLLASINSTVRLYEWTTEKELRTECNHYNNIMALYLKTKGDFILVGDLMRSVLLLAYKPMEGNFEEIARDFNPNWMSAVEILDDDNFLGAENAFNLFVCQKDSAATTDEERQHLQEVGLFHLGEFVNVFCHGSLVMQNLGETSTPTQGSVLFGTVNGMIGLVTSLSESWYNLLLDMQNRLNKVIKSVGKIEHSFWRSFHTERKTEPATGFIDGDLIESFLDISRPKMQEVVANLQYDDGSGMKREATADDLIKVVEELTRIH

Legend:
[1] = molecular target: His6-CRBN/DDB1 (Homo sapiens, UniProt Q96SW2); assay: TR-FRET ligand displacement assay (Thal-FITC tracer) with His6-CRBN/DDB1; details: Protein CRBN; for pIC50 (M) / IC50: Thalidomide-FITC tracer 50 nM; for Kd / pKD (M): from IC50 with Correction Factor 1.43; for IC50: protein […]
[2] = molecular target: thalidomide-binding domain of CRBN (Homo sapiens, UniProt Q96SW2); assay: TR-FRET ligand displacement assay with the thalidomide-binding domain; details: Protein CULT; for IC50: Thal-FITC tracer 775 nM, protein 50 nM; for Kd / pKD (M): from IC50 with Correction Factor 2.03
[3] = molecular target: His6-CRBN/DDB1 complex with BRD4(BD2) (Homo sapiens, UniProt O60885+Q96SW2); assay: TR-FRET ligand displacement assay with His6-CRBN/DDB1 in the presence of BRD4(BD2); details: Protein CRBN + BD2; for IC50: Thalidomide-FITC tracer 50 nM; for Kd / pKD (M): from IC50 with Correction Factor 1.43
[4] = molecular target: His6-CRBN/DDB1 and GST-BRD4(BD2) (Homo sapiens, UniProt O60885+Q96SW2); assay: AlphaScreen ternary complex formation, His6-CRBN/DDB1 and GST-BRD4(BD2)

Structure (SMILES)	pIC50 (M) [1]	Kd [1]	pKD (M) [1]	pIC50 (M) [2]	IC50 [2]	Kd [2]	pKD (M) [2]	IC50 [1]	pIC50 (M) [3]	IC50 [3]	Kd [3]	pKD (M) [3]	ternary complex formation between His6-CRBN/DDB1 and GST-BRD4(BD2) [4]
[2H]C1([2H])C[C@@]([2H])(N2Cc3cc(CNC(=O)Nc4ccc(C)c(Cl)c4)ccc3C2=O)C(=O)NC1=O [(R)-CC885-d3]	6.24 M		6.40 M					572 nM					
[2H]C1([2H])C[C@]([2H])(N2Cc3cc(NC(=O)CCCCCCCCNC(=O)C[C@@H]4N=C(c5ccc(Cl)cc5)c5c(sc(C)c5C)-n5c(C)nnc54)ccc3C2=O)C(=O)NC1=O [JQ1-(S)-Len-d3]	8.78 M							1.65 nM	7.37 M	42.7 nM and 43 nM	29.9 nM and 30 nM	7.52 M	
[2H]C1([2H])C[C@]([2H])(N2Cc3cc(NC(=O)CC4(CCC#C)N=N4)ccc3C2=O)C(=O)NC1=O	7.99 M	7.17 nM and 7 nM	8.14 M	5.83 M	1480 nM	733 nM	6.13 M						
[2H]C1([2H])C[C@]([2H])(N2Cc3cc(CNC(=O)Nc4ccc(C)c(Cl)c4)ccc3C2=O)C(=O)NC1=O [(S)-CC885-d3]	8.36 M							4.41 nM					
C#CCCC1(CC(=O)Nc2ccc3c(c2)CN(C2CCC(=O)NC2=O)C3=O)N=N1 (racemic)	7.57 M	18.9 nM and 19 nM	7.72 M	5.59 M	2540 nM	1260 nM	5.90 M						
[2H]C1([2H])C[C@@]([2H])(N2Cc3cc(NC(=O)CCCCCCCCNC(=O)C[C@@H]4N=C(c5ccc(Cl)cc5)c5c(sc(C)c5C)-n5c(C)nnc54)ccc3C2=O)C(=O)NC1=O [JQ1-(R)-Len-d3]	6.95 M	78.9 nM	7.10 M					112 nM	6.26 M	556 nM	390 nM	6.41 M	

The next lines start with the values.

pIC50 (M) [1]	Kd [1]	pKD (M) [1]	pIC50 (M) [2]	IC50 [2]	Kd [2]	pKD (M) [2]	IC50 [1]	pIC50 (M) [3]	IC50 [3]	Kd [3]	pKD (M) [3]	ternary complex formation between His6-CRBN/DDB1 and GST-BRD4(BD2) [4]	Structure (SMILES)
8.21 M													Cc1ccc(NC(=O)NCc2ccc3c(c2)CN(C2CCC(=O)NC2=O)C3=O)cc1Cl (racemic) [rac-CC-885]
7.60 M	17.7 nM and 18 nM	7.75 M	5.58 M	2630 nM and 2640 nM	1300 nM	5.89 M							[2H]C1([2H])CC([2H])(N2Cc3cc(NC(=O)CC4(CCC#C)N=N4)ccc3C2=O)C(=O)NC1=O (racemic)
5.74 M	1270 nM	5.90 M					1810 nM					minimally promoted the ternary complex	Cc1sc2c(c1C)C(c1ccc(Cl)cc1)=N[C@@H](CC(=O)NCCCCCCCCC(=O)N[C@@H](Cc1ccccc1)C(=O)N[C@@H]1CC(=O)NC1=O)c1nnc(C)n1-2
5.85 M	986 nM	6.01 M	4.64 M	22900 nM	11300 nM	4.95 M	1410 nM						[2H]C1([2H])C[C@@]([2H])(N2Cc3cc(NC(=O)CC4(CCC#C)N=N4)ccc3C2=O)C(=O)NC1=O
8.45 M							3.53 nM	7.07 M	84.3 nM and 84 nM	59.1 nM and 59 nM	7.23 M		[2H]C1([2H])CC([2H])(N2Cc3cc(NC(=O)CCCCCCCCNC(=O)C[C@@H]4N=C(c5ccc(Cl)cc5)c5c(sc(C)c5C)-n5c(C)nnc54)ccc3C2=O)C(=O)NC1=O (mixture of isomers)
